{"source": "paper PMC10041147", "about": "(RSC Advances, 2023)", "target": "Concanavalin A (ConA) (Canavalia ensiformis, UniProt P02866)", "format": "binding", "conditions": "ConA sensor", "note": "Like-named read-outs stand apart in the source and are kept apart here.", "data": [{"substance": "mannan [mannan (4)]", "values": [{"measurement": "Kd", "setting": "read-out: K d from CV, cyclic voltammetry", "result": "10 ± 5", "unit": "µM"}, {"measurement": "Kd", "setting": "read-out: K d from DPV, differential pulse voltammetry", "result": "3 ± 1", "unit": "µM"}]}]}
